# According to ChEMBL document CHEMBL5230155, “Recent contributions of quinolines to antimalarial and anticancer drug discovery research” (Eur J Med Chem, 2021):
# Sequences of proteins named here, by UniProt entry; tags and fusion partners are left off.
# UniProt P35354, whole entry: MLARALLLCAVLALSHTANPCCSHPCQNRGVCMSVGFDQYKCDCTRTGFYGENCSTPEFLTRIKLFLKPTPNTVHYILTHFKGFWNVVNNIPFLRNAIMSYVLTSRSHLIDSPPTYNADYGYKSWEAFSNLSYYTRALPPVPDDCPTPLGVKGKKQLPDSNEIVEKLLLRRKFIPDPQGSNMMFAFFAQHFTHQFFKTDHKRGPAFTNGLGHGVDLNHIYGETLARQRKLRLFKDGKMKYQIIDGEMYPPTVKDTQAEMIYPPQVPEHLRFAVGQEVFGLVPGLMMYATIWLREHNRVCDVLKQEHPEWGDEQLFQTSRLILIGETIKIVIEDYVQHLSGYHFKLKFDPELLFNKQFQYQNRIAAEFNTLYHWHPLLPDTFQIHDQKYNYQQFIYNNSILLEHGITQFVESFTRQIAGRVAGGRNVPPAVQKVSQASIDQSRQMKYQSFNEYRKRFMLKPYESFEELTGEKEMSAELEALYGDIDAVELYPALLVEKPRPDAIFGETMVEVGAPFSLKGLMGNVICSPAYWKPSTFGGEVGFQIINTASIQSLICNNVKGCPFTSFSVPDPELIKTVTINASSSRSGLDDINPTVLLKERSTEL
# Target: Prostaglandin G/H synthase 2 (Homo sapiens, UniProt P35354)
# Assay: Potency index, ratio of celecoxib IC50 to test compound IC50 for inhibition of COX-2 (unknown origin)
row,Ratio IC50,SMILES
1,3,COc1ccc2ccc(F)c(CC(=O)N/N=C/c3cccc(C(F)(F)F)c3)c2n1
2,3,COc1ccc2ccc(F)c(CC(=O)N/N=C/c3ccc(C(F)(F)F)cc3)c2n1
